Results taken from US20210113563A1, “4-(4-CYANO-2-THIOARYL)DIHYDROPYRIMIDINONES FOR TREATING CHRONIC WOUNDS” (pH Pharma Co., Ltd., priority 2015, published 2021).

Sequences of proteins named here, by UniProt entry; tags and fusion partners are left off. Residues count along the entry.
UniProt Q3UP87, 27-265: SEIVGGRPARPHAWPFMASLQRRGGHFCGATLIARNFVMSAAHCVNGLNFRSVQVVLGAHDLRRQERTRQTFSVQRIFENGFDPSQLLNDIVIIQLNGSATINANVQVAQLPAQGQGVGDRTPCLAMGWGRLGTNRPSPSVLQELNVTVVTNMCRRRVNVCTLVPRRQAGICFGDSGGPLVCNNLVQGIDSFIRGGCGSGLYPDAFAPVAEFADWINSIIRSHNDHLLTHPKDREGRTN

Tests used:
[1] = molecular target: Neutrophil Elastase (NE) (Mus musculus, UniProt Q3UP87); details: db/db mouse, day 8
[2] = molecular target: T1, human neutrophil elastase (HNE) (Homo sapiens, UniProt P08246); details: read-out: Inhibition of human neutrophil elastase (HNE) IC50; cited from earlier work
T1 sequence (P08246 30-267): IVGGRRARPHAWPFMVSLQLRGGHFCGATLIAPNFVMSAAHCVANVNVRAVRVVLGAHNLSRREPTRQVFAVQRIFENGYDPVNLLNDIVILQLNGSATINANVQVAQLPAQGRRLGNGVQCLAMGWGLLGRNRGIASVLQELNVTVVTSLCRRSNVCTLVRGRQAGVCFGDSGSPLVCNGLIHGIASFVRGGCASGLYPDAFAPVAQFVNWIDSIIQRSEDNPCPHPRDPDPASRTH

Q: What does the source list for `CC1=C(C#N)[C@@H](c2ccc(C#N)cc2S(C)(=O)=O)N(C)C(=O)N1c1cccc(C(F)(F)F)c1` [Example 5, (4 S)-4-[4-Cyano-2-(methylsulfonyl)phenyl]-3,6-dimethyl-2-oxo-1-[3-(trifluoromethyl)phenyl]-1,2,3,4-tetrahydropyrimidine-5-carbonitrile]?
A: NE activity in wound tissue ([1]; 0.3 mg/kg BW o.d. p.o.): 6677 ng/mL equivalent; NE activity in wound tissue ([1]; 1.0 mg/kg BW o.d. p.o.): 5018 ng/mL equivalent; IC50 [2]: < 300 pM

Like-named read-outs stand apart in the source and are kept apart here.
